# Reference: patent US20120258967A1, “PI3 KINASE INHIBITORS AND USES THEREOF” (AVILA THERAPEUTICS, INC., priority 2011, published 2012)
# Sequences of proteins named here, by UniProt entry; tags and fusion partners are left off. A change or cut given only in a name is not applied to a line headed by its entry.
# UniProt P42338: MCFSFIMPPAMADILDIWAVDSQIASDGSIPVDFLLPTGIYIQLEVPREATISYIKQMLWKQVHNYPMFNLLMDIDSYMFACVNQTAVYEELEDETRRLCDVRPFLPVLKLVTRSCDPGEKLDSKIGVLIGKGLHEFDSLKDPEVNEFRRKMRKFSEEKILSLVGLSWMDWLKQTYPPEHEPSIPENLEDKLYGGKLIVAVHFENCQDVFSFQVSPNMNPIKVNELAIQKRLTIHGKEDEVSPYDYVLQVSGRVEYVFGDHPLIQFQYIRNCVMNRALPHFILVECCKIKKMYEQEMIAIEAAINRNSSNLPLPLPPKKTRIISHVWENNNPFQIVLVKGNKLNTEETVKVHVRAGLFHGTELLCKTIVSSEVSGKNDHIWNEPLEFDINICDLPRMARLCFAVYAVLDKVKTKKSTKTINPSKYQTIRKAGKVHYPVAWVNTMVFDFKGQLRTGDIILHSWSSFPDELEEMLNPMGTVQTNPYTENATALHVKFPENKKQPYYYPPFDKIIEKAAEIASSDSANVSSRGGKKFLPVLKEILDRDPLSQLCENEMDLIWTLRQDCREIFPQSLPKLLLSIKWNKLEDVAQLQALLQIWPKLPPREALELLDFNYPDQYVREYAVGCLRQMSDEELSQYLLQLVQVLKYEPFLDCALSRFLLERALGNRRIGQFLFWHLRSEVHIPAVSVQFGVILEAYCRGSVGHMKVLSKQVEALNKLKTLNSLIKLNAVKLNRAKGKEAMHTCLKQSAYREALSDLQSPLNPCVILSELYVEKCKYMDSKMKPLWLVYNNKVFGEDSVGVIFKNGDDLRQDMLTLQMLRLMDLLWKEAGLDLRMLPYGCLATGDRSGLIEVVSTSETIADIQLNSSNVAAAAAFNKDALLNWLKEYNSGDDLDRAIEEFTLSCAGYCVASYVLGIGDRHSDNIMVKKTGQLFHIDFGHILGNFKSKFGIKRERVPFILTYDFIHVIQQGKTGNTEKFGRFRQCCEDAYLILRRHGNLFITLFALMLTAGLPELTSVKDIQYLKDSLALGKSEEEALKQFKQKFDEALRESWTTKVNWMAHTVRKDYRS
# Where two headings read alike, the source gives them in different places.
# Tests used:
# PI3Kβ (p110β/p85α) [1] = target: T1, PI3Kβ (p110β/p85α) (Homo sapiens, UniProt P42338); assay: HTRF assay, reference inhibitors on PI3Kβ; format: biochemical; settings: n=6, read-out: Reference Inhibitor IC50 estimated for p110β/p85α enzyme
# T1 construct: purchased BPS Bioscience or Millipore
# Procedure: Homogeneous Time Resolved Fluorescence (HTRF) Assay Protocol for Potency Assessment Against the Active Forms of PI3Kα, PI3Kβ, and PI3Kγ
# The mechanics of the assay platform are best described by the vendor (Millipore, Billerica, Mass.) on their website at the following URL: www.millipore.com/coa/tech1/74jt4z.
# Briefly, Stop solution (Stop A, #33-007 and Stop B, #33-009; 3:1 ratio) and Detection Mix (from DMC, #33-015 with DMA, #33-011 and DMB, #33-013; 18:1:1 ratio) were prepared as recommended by the manufacturer about 2 hrs prior to use. […] Lipid kinase reactions were started with the addition of 5 μL of ATP solution, mixed for 15 sec on a rotary plate shaker and incubated for 30-60 minutes at 25° C. Next, reactions were stopped with a 5 μL addition of Stop solution immediately followed by a 5 μL volume of Detection Mix.
# PI3Kβ (p110β/p85α) [2] = target: T1, PI3Kβ (p110β/p85α); settings: published value; read-out: published IC50 (p110β/p85α enzyme); cited from earlier work
smiles,measurement,setting,value
O=c1cc(N2CCOCC2)oc2c(-c3ccccc3)cccc12 [LY294002],IC50,PI3Kβ (p110β/p85α) [1],> 1 µM
same,IC50,PI3Kβ (p110β/p85α) [2],> 1 µM
